## AlphaSeq binding of Ab-14 light chain variants to a spike HR2 peptide

Antigen: PDVDLGDISGINAS, a 14-residue peptide of the SARS-CoV-2 spike HR2 region.

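Phage display of a naive human antibody library on the peptide gave the parent. Library AAYL50 holds single substitutions and randomly drawn double and triple substitutions in the CDRs. AlphaSeq pools MATa yeast showing the antibodies with MATalpha yeast showing the peptide. Binding brings cells together so that they mate, and sequencing counts the barcode pairs among the diploids. The ratio of observed to expected reads was calibrated, replicate by replicate, on BCL2-family standards whose Kd was known from biolayer interferometry. The assay was run in three technical replicates.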

Parent: Ab-14, a human scFv built as VH, three GGGGS repeats, VL. Only the CDRs of the light chain vary.
VH: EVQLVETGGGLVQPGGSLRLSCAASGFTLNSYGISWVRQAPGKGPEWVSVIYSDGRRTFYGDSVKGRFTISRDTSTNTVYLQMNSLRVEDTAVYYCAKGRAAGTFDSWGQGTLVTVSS
VL: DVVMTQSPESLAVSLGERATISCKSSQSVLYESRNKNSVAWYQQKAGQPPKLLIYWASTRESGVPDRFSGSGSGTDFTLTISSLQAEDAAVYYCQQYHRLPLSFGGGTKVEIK

Substitutions are numbered in sequence along the VL above, starting at 1 (not Kabat). Affinities are written as log10 Kd with Kd in nM; a lower number is a better binder. Replicates are averaged; those with no signal do not enter the mean. Where no diploid with the target was found in that replicate, the entry reads "n.d.": below detection, most likely a poor binder, though not proof of it. Empty control strains, which show no peptide, gave a signal in 18% of pairings with library AAYL50; the median was 4.19 and 95% of these signals were weaker than 2.99. No background was subtracted. Also given: how often the same scFv was detected with the empty control strains, with their mean in brackets.

| # | changes | log10 Kd (nM) by replicate | mean, log10 nM | signal with controls |
|---|---|---|---|---|
| 1 | V29Q/Y31W/P101M | 4.10 4.47 6.55 | 5.04 | 7 of 9 (4.26) |
| 2 | W56E/A57I/P101R | 5.38 5.40 5.70 | 5.49 | 2 of 9 (4.64) |
| 3 | S28A/L100C/P101N | 4.56 4.20 n.d. | 4.38 | 1 of 9 (4.95) |
| 4 | R34G/Q95S/R99N | 0.43 0.52 0.32 | 0.42 | 5 of 9 (4.03) |
| 5 | E61Q/Q96L | n.d. n.d. n.d. | n.d. | 0 of 9 |
| 6 | A40D/S58H/L100W | 4.20 n.d. n.d. | 4.20 | 1 of 9 (4.02) |
| 7 | R34W/Y97K/H98T | n.d. n.d. 3.67 | 3.67 | 1 of 9 (4.36) |
| 8 | R60G/Q96C/P101R | n.d. n.d. n.d. | n.d. | 0 of 9 |
| 9 | R34F/S58R/R99Y | 4.10 3.00 3.11 | 3.40 | 3 of 9 (4.92) |
| 10 | V29F/Y31N/N35D | 0.60 0.73 0.60 | 0.65 | 4 of 9 (4.56) |
| 11 | N37M/R60S/L102I | n.d. n.d. n.d. | n.d. | 1 of 9 (3.91) |
| 12 | S38V/A57K/S62F | n.d. n.d. n.d. | n.d. | 1 of 9 (3.81) |
| 13 | L30W/N35G/A57W | n.d. n.d. n.d. | n.d. | 1 of 9 (3.18) |
| 14 | K24G/Q27L/L102Q | 2.93 n.d. n.d. | 2.93 | 0 of 9 |
| 15 | S25C/N37Y/S38D | 1.29 1.48 1.55 | 1.44 | 3 of 9 (4.13) |
| 16 | S33M/W56D/Q96T | 0.48 0.75 0.59 | 0.60 | 3 of 9 (4.71) |
| 17 | S26L/L30C | 1.51 1.48 1.34 | 1.44 | 2 of 9 (3.96) |
| 18 | Q27H/A40W/R60Y | n.d. n.d. 4.93 | 4.93 | 0 of 9 |
| 19 | N37F/S38N/A40V | n.d. n.d. n.d. | n.d. | 0 of 9 |
| 20 | V29N/N37H/R99Y | n.d. 3.64 2.43 | 3.04 | 0 of 9 |
| 21 | N35R/V39H/S103K | n.d. n.d. 3.75 | 3.75 | 4 of 9 (5.09) |
| 22 | W56V/Q95S | n.d. 2.93 4.72 | 3.83 | 0 of 9 |
| 23 | N35E/A40P/L102E | n.d. n.d. 3.62 | 3.62 | 0 of 9 |
| 24 | Y31T/Y97V/H98V | 1.04 1.38 1.53 | 1.32 | 0 of 9 |
| 25 | Y31R/R34F/Q95N | 0.03 0.50 0.41 | 0.31 | 1 of 9 (2.71) |
| 26 | Q27W/Y31F/V39L | 1.34 1.53 1.91 | 1.59 | 2 of 9 (3.70) |
| 27 | S33L/S38C/A40T | 5.60 5.23 5.26 | 5.36 | 3 of 9 (3.83) |
| 28 | S33E/K36L/T59M | 0.61 0.51 0.80 | 0.64 | 0 of 9 |
| 29 | S62T/Y97T | n.d. n.d. n.d. | n.d. | 0 of 9 |
| 30 | S33W/N35M/R99T | n.d. n.d. n.d. | n.d. | 0 of 9 |
| 31 | S58Y/T59H | 1.98 2.52 1.53 | 2.01 | 0 of 9 |
| 32 | E61W/Q96H | 1.26 1.65 1.19 | 1.37 | 2 of 9 (4.79) |
| 33 | S25G/Q27R/T59P | 6.47 5.18 4.91 | 5.52 | 3 of 9 (4.41) |
| 34 | S62M/P101K | 2.27 1.96 2.59 | 2.27 | 2 of 9 (4.08) |
| 35 | S26P/Y31H/H98L | 0.95 0.92 0.86 | 0.91 | 2 of 9 (5.12) |
| 36 | S28E/K36C/P101N | n.d. 5.45 3.46 | 4.45 | 2 of 9 (3.65) |

A selection of 5 entries from above:

| changes | log10 Kd (nM) by replicate | mean, log10 nM | signal with controls |
|---|---|---|---|
| S33M/W56D/Q96T | 0.48 0.75 0.59 | 0.60 | 3 of 9 (4.71) |
| N37F/S38N/A40V | n.d. n.d. n.d. | n.d. | 0 of 9 |
| K24G/Q27L/L102Q | 2.93 n.d. n.d. | 2.93 | 0 of 9 |
| W56E/A57I/P101R | 5.38 5.40 5.70 | 5.49 | 2 of 9 (4.64) |
| N35E/A40P/L102E | n.d. n.d. 3.62 | 3.62 | 0 of 9 |

From the AlphaSeq antibody data of Engelhart et al. 2022 (doi:10.1038/s41597-022-01779-4), copy in the FLAb collection.